The text below walks through data of US20120065365A1, “Stable Radiopharmaceutical Compositions and Methods for Their Preparation” (BRACCO IMAGING S.P.A., priority 2003, published 2012).

This data set in a line: Radiostability (RCP, Met═O by HPLC) of preformed ^177Lu-A with individual amino acids added (Example 1). The format is physicochemical. Conditions: methionine oxidized form of ^177Lu-A, room temperature; for 0-1 h Met═O (%): amino acid 6.6 mg/mL added to ^177Lu-A ~20 mCi/mL (3.5 mCi total); for 24-h Met═O (%) / 48-h Met═O (%): amino acid 6.6 mg/mL, ~20 mCi/mL.

Turning to `C[Se]CC[C@H](N)C(=O)O` [L-Selenomethionine], the “0-1 h Met═O (%)” value was determined as 0%, the “24-h Met═O (%)” value was determined as 0.9% and the “48-h Met═O (%)” value was 0.1%.

For `N[C@@H](Cc1c[nH]cn1)C(=O)O` [Histidine, L-Histidine], the “0-1 h Met═O (%)” value was determined as 7.5%, the “24-h Met═O (%)” value is 44% and the “48-h Met═O (%)” value came out at 29.5%.

Consider `N[C@@H](Cc1c[nH]c2ccccc12)C(=O)O` [Tryptophan, L-Tryptophan], for which the “0-1 h Met═O (%)” value came to 4.5%, the “24-h Met═O (%)” value is 46.8% and the “48-h Met═O (%)” value worked out at 81.8%.
